# According to paper PMC6646369, “A new bioavailable fenretinide formulation with antiproliferative, antimetabolic, and cytotoxic effects on solid tumors” (Cell Death & Disease, 2019):
# Tested on: LCSC6 lung cancer spheroid cells
# Assay: Cell viability assay (CellTiter-Glo)
# Assay type: cell-based, human
# Details: LCSC6, 48 hours; SA 2, 4, 6 µM; GT11 0,5, 2, 5 µM
# Procedure: Cell viability upon treatment with NanoFEN, zVAD, NAC, 3-MA, Myriocin, PPMP, GT11, SA and Rapamycin was determined by CellTiter-Glo luminescent cell viability assay (Promega, Madison, WI, USA) according to the manufacturer’s directions. Briefly, lung and colorectal spheroids were dissociated mechanically or with TrypLE Express (Thermo Fisher Scientific) respectively and seeded 3 × 10^3 per well in 96-well plates (three replicates per experimental point) in serum-free medium, and incubated in a humidified atmosphere at 37 °C, 5% CO2. Cells were treated with the respective compounds and analysed after the appropriate time period as described in detail in Figure Legends. Luminescence was detected with a DTX880 multimode microplate reader (Beckman Coulter, Brea, CA, USA).
structure (smiles),measurement,value
"CCCCCCCCCCCCCC1=C([C@H](O)[C@@H](CO)NC(=O)CCCCCCC)C1 [GT11, N-[(1R,2S)-2-hydroxy-1-hydroxymethyl-2-(2-tridecyl-1-cyclopropenyl)ethyl]octanamide]",cell viability,dose-dependent viability decrease
